Assay results from the NIST ThermoML archive (doi:10.1016/j.fluid.2013.11.031).

Test: xn = mol fraction of the nth substance listed
Conditions: Liquid, Vibrating tube method

CCCCOCCCC [dibutyl ether] + CCCCCCO
mass density [kg/m3]
Conditions | x1 = 0.1503 | x1 = 0.3248 | x1 = 0.4999 | x1 = 0.6761 | x1 = 0.8431
293.15 K, 100 kPa | 810.2 | 800.4 | 791.5 | 783.1 | 775.5
293.15 K, 10000 kPa | 816.9 | 807.4 | 798.8 | 790.8 | 783.4
293.15 K, 20000 kPa | 823 | 813.9 | 805.6 | 797.9 | 790.7
293.15 K, 30000 kPa | 828.7 | 819.8 | 811.7 | 804.3 | 797.4
293.15 K, 40000 kPa | 834.2 | 825.5 | 817.6 | 810.4 | 803.7
293.15 K, 50000 kPa | 839.2 | 830.8 | 823 | 816 | 809.5
293.15 K, 60000 kPa | 843.9 | 835.7 | 828.1 | 821.2 | 814.9
293.15 K, 70000 kPa | 848.5 | 840.5 | 833.1 | 826.3 | 820
293.15 K, 80000 kPa | 852.9 | 845 | 837.8 | 830.8 | 824.9
293.15 K, 90000 kPa | 857 | 849.2 | 842.1 | 835.3 | 829.5
293.15 K, 100000 kPa | 861.3 | 853.7 | 846.6 | 839.9 | 834.2
293.15 K, 110000 kPa | 865 | 857.5 | 850.6 | 844 | 838.4
293.15 K, 120000 kPa | 868.8 | 861.3 | 854.5 | 848 | 842.5
293.15 K, 130000 kPa | 872.4 | 865 | 858.3 | 851.9 | 846.4
293.15 K, 140000 kPa | 875.9 | 868.6 | 862 | 855.7 | 850.3
313.15 K, 100 kPa | 795.1 | 785.1 | 775.3 | 766.3 | 758.4
313.15 K, 10000 kPa | 802.3 | 792.7 | 783.3 | 774.7 | 767.3
313.15 K, 20000 kPa | 809 | 799.7 | 790.7 | 782.5 | 775.3
313.15 K, 30000 kPa | 815.3 | 806.4 | 797.7 | 789.7 | 782.8
313.15 K, 40000 kPa | 821 | 812.4 | 804 | 796.2 | 789.5
313.15 K, 50000 kPa | 826.6 | 818.1 | 810 | 802.4 | 795.9
313.15 K, 60000 kPa | 831.8 | 823.5 | 815.6 | 808.2 | 801.8
313.15 K, 70000 kPa | 836.8 | 828.8 | 821 | 813.7 | 807.5
313.15 K, 80000 kPa | 841.4 | 833.6 | 825.9 | 818.8 | 812.7
313.15 K, 90000 kPa | 845.9 | 838.2 | 830.7 | 823.7 | 817.7
313.15 K, 100000 kPa | 850.1 | 842.5 | 835.1 | 828.2 | 822.4
313.15 K, 110000 kPa | 854.2 | 846.8 | 839.5 | 832.8 | 827
313.15 K, 120000 kPa | 858.2 | 850.9 | 843.7 | 837.1 | 831.4
313.15 K, 130000 kPa | 862 | 854.8 | 847.7 | 841.2 | 835.5
313.15 K, 140000 kPa | 865.7 | 858.6 | 851.7 | 845.2 | 839.6
333.15 K, 100 kPa | 780.1 | 769.2 | 759.8 | 753 | 742
333.15 K, 10000 kPa | 788.1 | 777.7 | 768.6 | 762.1 | 751.8
333.15 K, 20000 kPa | 795.6 | 785.6 | 776.7 | 770.4 | 760.7
333.15 K, 30000 kPa | 802.4 | 792.7 | 784.1 | 777.8 | 768.7
333.15 K, 40000 kPa | 808.7 | 799.4 | 790.9 | 784.8 | 776.1
333.15 K, 50000 kPa | 814.6 | 805.5 | 797.3 | 791.2 | 782.9
333.15 K, 60000 kPa | 820.1 | 811.3 | 803.2 | 797.2 | 789.2
333.15 K, 70000 kPa | 825.3 | 816.6 | 808.7 | 802.8 | 795.1
333.15 K, 80000 kPa | 830.3 | 821.9 | 814.1 | 808.2 | 800.8
333.15 K, 90000 kPa | 835.3 | 827 | 819.4 | 813.5 | 806.4
333.15 K, 100000 kPa | 839.8 | 831.6 | 824.1 | 818.1 | 811.3
333.15 K, 110000 kPa | 843.9 | 835.9 | 828.6 | 822.5 | 816
333.15 K, 120000 kPa | 847.6 | 839.7 | 832.5 | 826.4 | 820
333.15 K, 130000 kPa | 851.8 | 844 | 836.9 | 830.8 | 824.7
333.15 K, 140000 kPa | 855.6 | 847.9 | 840.9 | 834.9 | 828.9
353.15 K, 100 kPa | 763.7 | 752.3 | 742.7 | 735.5 | 724.8
353.15 K, 10000 kPa | 772.7 | 761.9 | 752.7 | 745.7 | 735.9
353.15 K, 20000 kPa | 780.9 | 770.6 | 761.7 | 755 | 745.8
353.15 K, 30000 kPa | 788.4 | 778.6 | 769.9 | 763.3 | 754.6
353.15 K, 40000 kPa | 795.3 | 785.8 | 777.3 | 770.9 | 762.5
353.15 K, 50000 kPa | 801.8 | 792.5 | 784.2 | 777.9 | 769.9
353.15 K, 60000 kPa | 807.6 | 798.7 | 790.5 | 784.3 | 776.6
353.15 K, 70000 kPa | 813.2 | 804.5 | 796.5 | 790.3 | 782.8
353.15 K, 80000 kPa | 818.6 | 810.1 | 802.2 | 796.1 | 788.8
353.15 K, 90000 kPa | 823.6 | 815.3 | 807.5 | 801.5 | 794.4
353.15 K, 100000 kPa | 828.3 | 820.1 | 812.6 | 806.5 | 799.6
353.15 K, 110000 kPa | 832.8 | 824.9 | 817.5 | 811.3 | 804.7
353.15 K, 120000 kPa | 837.3 | 829.4 | 822.2 | 816 | 809.5
353.15 K, 130000 kPa | 841.4 | 833.5 | 826.3 | 820.4 | 814.1
353.15 K, 140000 kPa | 845.5 | 837.7 | 830.5 | 824.7 | 818.6
